Reported logP (octanol/water) values for industrial, environmental and drug-like chemicals

Data: OPERA 2.9 data sets, kmansouri/OPERA on GitHub.

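The numbers are reported measurements, compiled and curated for the OPERA QSAR suite. The files give a single number for a compound and property, which may rest on several reports. Conditions of the individual experiments are not part of the data. The measured form (salt, isomer or mixture) is not always the one drawn. Some upstream entries may be estimates or bounds without being marked so.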

The octanol-water partition coefficient is given as log10; larger values mean a more lipophilic compound.
The databases behind each value are named after "via".

structure (SMILES),log Kow,via
O=S(=O)([O-])c1cc(Nc2nc(Nc3ccccc3)nc(N3CCOCC3)n2)ccc1/C=C/c1ccc(Nc2nc(Nc3ccccc3)nc(N3CCOCC3)n2)cc1S(=O)(=O)[O-].[Na+].[Na+],-1.54,"OFMPub, PubChem, eChemPortal"
COc1cc2nc(N3CCN(C(=O)C4CCCO4)CC3)nc(N)c2cc1OC (configuration not stated),1,PubChem
CN[C@@H]1CCc2[nH]c3ccc(C(N)=O)cc3c2C1,0.9,PubChem
CC(=O)N1CC(=O)N2CCc3ccccc3C2C1 (configuration not stated),0.7,eChemPortal
CCn1c(O)c(/N=N/c2cc(Nc3nc(Cl)nc(Nc4cccc(S(=O)(=O)[O-])c4)n3)ccc2S(=O)(=O)[O-])c(C)c(CS(=O)(=O)[O-])c1=O.[Na+].[Na+].[Na+],-3.49,eChemPortal
CCCOCCO,0.08,PubChem
CC1COC(C)(CCC(=O)OCCCCOC(=O)CCC2(C)OCC(C)O2)O1 (configuration not stated),1.9,eChemPortal
O=C(O)CN(CCO)CC(=O)O,-1.17,eChemPortal
O=C(OCC1OC(n2ccc(=O)cc2O)C(OC(=O)c2ccccc2)C1OC(=O)c1ccccc1)c1ccccc1 (configuration not stated),-0.6,OCHEM
O=c1nc(-c2ccccc2)[nH]c(-c2ccccc2)n1,1.8,eChemPortal
C1=CCC2CC=CC2C1 (configuration not stated),3.83,OCHEM
O=c1[c-](-c2cccc(C(F)(F)F)c2)c(=O)[n+]2ccccc2n1Cc1cncnc1,1.24,eChemPortal
COC(C)(OC)OC,-0.335,eChemPortal
C/C=C/C/C=C/CCC(=O)[C@H]1O[C@H]1C(N)=O,1.2,PubChem
C[N+](C)(C)C12CC3CC(CC(C3)C1)C2.C[N+](C)(C)C12CC3CC(CC(C3)C1)C2.O=S(=O)([O-])[O-],-2.35,eChemPortal
O=C(O)CCCCCCCCCCCCCCC(=O)O,4.67,eChemPortal
CCC1CO1 (configuration not stated),0.68,"PubChem, eChemPortal"
O=C(O)C(Cc1ccccc1)NC(O)=Nc1ccccc1Cl (configuration not stated),0.74,eChemPortal
CCCCCCCCOC(=O)CCCCCCC,6.51,OCHEM
COc1ccccc1N1CCN(CCNC(=O)c2cccs2)CC1,2,OCHEM
O=C=Nc1ccc(Cc2ccc(N=C=O)cc2)cc1,4.51,eChemPortal
O=C(O)C1CCC(C(=O)O)CC1 (configuration not stated),1.32,eChemPortal
CC(C)c1ccc(S(=O)(=O)[O-])cc1.[NH4+],-1.679,eChemPortal
Cc1ccc2c(c1)OCC(=O)CO2,1.95,eChemPortal
CC(C(=O)O)c1ccc2c(c1)[nH]c1ccc(Cl)cc12 (configuration not stated),3.8,PubChem
COC(=O)C1CCC(C(=O)OC)CC1 (configuration not stated),2.29,eChemPortal
NC(Cc1ccc(O)c(Br)c1)C(=O)O (configuration not stated),-0.72,OCHEM
COc1ccc(CCC(=O)c2c(O)cc(O[C@@H]3O[C@H](CO)[C@@H](O)[C@H](O)[C@H]3O[C@@H]3O[C@@H](C)[C@H](O)[C@@H](O)[C@H]3O)cc2O)cc1O,0.67,eChemPortal
CN=C(O)C(C)N=C(C)O (configuration not stated),-1.21,OCHEM
N#Cc1ccccc1-c1ccc(CBr)cc1,3.2,eChemPortal
CC(=O)Nc1ccc(-c2ccc(NC(C)=O)cc2)cc1,1.97,PubChem
Clc1cc(Cl)c(-c2cc(Cl)c(Cl)c(Cl)c2Cl)c(Cl)c1,7.2,OCHEM
COc1cc(/N=N/c2cccc(S(=O)(=O)[O-])c2)ccc1Nc1nc(Nc2ccc(/N=N/c3cccc(S(=O)(=O)[O-])c3)cc2OC)nc(N(CCO)CCO)n1.[Na+].[Na+],-3.31,eChemPortal
O=C1N=C(Nc2ccc(NC3=NC(=O)c4c(Cl)c(Cl)c(Cl)c(Cl)c43)cc2)c2c(Cl)c(Cl)c(Cl)c(Cl)c21,3.959,eChemPortal
CC[N+]1=C(c2ccc3c(c2)C(C)CC(C)(C)N3CCO)c2cccc3cccc1c23.[Cl-] (configuration not stated),-0.1,eChemPortal
CC[N+](C)(C)C.[I-],-3.14,OCHEM

Excerpt, the opening 5 entries:

structure (SMILES),log Kow,via
O=S(=O)([O-])c1cc(Nc2nc(Nc3ccccc3)nc(N3CCOCC3)n2)ccc1/C=C/c1ccc(Nc2nc(Nc3ccccc3)nc(N3CCOCC3)n2)cc1S(=O)(=O)[O-].[Na+].[Na+],-1.54,"OFMPub, PubChem, eChemPortal"
COc1cc2nc(N3CCN(C(=O)C4CCCO4)CC3)nc(N)c2cc1OC (configuration not stated),1,PubChem
CN[C@@H]1CCc2[nH]c3ccc(C(N)=O)cc3c2C1,0.9,PubChem
CC(=O)N1CC(=O)N2CCc3ccccc3C2C1 (configuration not stated),0.7,eChemPortal
CCn1c(O)c(/N=N/c2cc(Nc3nc(Cl)nc(Nc4cccc(S(=O)(=O)[O-])c4)n3)ccc2S(=O)(=O)[O-])c(C)c(CS(=O)(=O)[O-])c1=O.[Na+].[Na+].[Na+],-3.49,eChemPortal